# Test results as given in patent publication US20250163048A1 (Tango Therapeutics, Inc., priority 2022, published 2025).
# Test system: HAP1 MTAP-deleted cell line
# Assay: SDMA in-cell western assay, HAP1 MTAP-deleted
# Conditions: IC50 ratio between HAP1 MTAP-intact and HAP1 MTAP-deleted cell line, SDMA in-cell western
row,SMILES,Hap1 MTAP intact/deleted ratio
1,"C[C@H]1CC[C@H](c2ccc3scnc3c2)N(C(=O)C(=O)Nc2cnc(N)c3cn[nH]c23)C1 [Compound 17, N-(4-amino-1H-pyrazolo[4,3-c]pyridin-7-yl)-2-[(2R,5S)-2-(1,3-benzothiazol-5-yl)-5-methyl-1-piperidyl]-2-oxo-acetamide]",B (“B” indicates an IC50 ratio greater than or equal to 15 fold but lower than 30 fold)
2,"C[C@H]1CC[C@H](c2ccc3sc(C4CCN(C)CC4)nc3c2)N(C(=O)C(=O)Nc2cnc(N)c3cn[nH]c23)C1 [Compound 105, N-(4-amino-1H-pyrazolo[4,3-c]pyridin-7-yl)-2-oxo-2-[(2R,5S)-5-methyl-2-[2-(1-methyl-4-piperidyl)-1,3-benzothiazol-5-yl]-1-piperidyl]acetamide]",C (“C” indicates an IC50 ratio of less than 15 fold)
3,"C[C@H]1CC[C@H](c2ccccc2)N(C(=O)C(=O)Nc2cnc(N)c3cn[nH]c23)C1 [Compound 126, N-(4-amino-1H-pyrazolo[4,3-c]pyridin-7-yl)-2-oxo-2-[(2R,5S)-5-methyl-2-phenyl-1-piperidyl]acetamide]",B (“B” indicates an IC50 ratio greater than or equal to 15 fold but lower than 30 fold)

# Same assay, conditions: IC50 ratio between HAP1 MTAP-intact and HAP1 MTAP-deleted cell line, SDMA in-cell western assay
row,SMILES,Hap1 MTAP intact/deleted ratio
1,"CC(C)[C@@H]1CC[C@@H](C)CN1C(=O)C(=O)Nc1cnc(N)c2cn[nH]c12 (racemic) [Compound 244, N-(4-amino-1H-pyrazolo[4,3-c]pyridin-7-yl)-2-(rac-(2S,5R)-2-isopropyl-5-methylpiperidin-1-yl)-2-oxoacetamide]",A (“A” indicates an IC50 ratio greater than or equal to 30 fold)
2,"[2H]c1c([2H])c([2H])c([C@H]2CC[C@H](C)CN2C(=O)C(=O)Nc2cnc(N)c3cn[nH]c23)c([2H])c1[2H] (single isomer, unassigned) [Compound 268]",B (“B” indicates an IC50 ratio greater than or equal to 15 fold but lower than 30 fold)
3,"[2H]c1c([2H])c([2H])c([C@@H]2CC[C@H](C)CN2C(=O)C(=O)Nc2cnc(N)c3cn[nH]c23)c([2H])c1[2H] (single isomer, unassigned) [Compound 286]",B (“B” indicates an IC50 ratio greater than or equal to 15 fold but lower than 30 fold)
4,"C[C@H]1CC[C@H](C2CC2)N(C(=O)C(=O)Nc2cnc(N)c3cn[nH]c23)C1 [Compound 277, N-(4-Amino-1H-pyrazolo[4,3-c]pyridin-7-yl)-2-oxo-2-[(2R,5S)-2-cyclopropyl-5-methyl-1-piperidyl]acetamide]",A (“A” indicates an IC50 ratio greater than or equal to 30 fold)
